Source: PubChem BioAssay AID727 (The Scripps Research Institute Molecular Screening Center, 2007)
The entries are a selection whose mix differs from that of the whole data set. Some results for these compounds are left out of this collection, so the calls shown say nothing about other tests. Activity calls are given as the source filed them. Cut-off read from the data, not from the text of the source: active = inhibition above about 19%; inactive = the rest.

The chains behind the UniProt entries cited, without tags or fusion partners.
UniProt Q05397, whole entry: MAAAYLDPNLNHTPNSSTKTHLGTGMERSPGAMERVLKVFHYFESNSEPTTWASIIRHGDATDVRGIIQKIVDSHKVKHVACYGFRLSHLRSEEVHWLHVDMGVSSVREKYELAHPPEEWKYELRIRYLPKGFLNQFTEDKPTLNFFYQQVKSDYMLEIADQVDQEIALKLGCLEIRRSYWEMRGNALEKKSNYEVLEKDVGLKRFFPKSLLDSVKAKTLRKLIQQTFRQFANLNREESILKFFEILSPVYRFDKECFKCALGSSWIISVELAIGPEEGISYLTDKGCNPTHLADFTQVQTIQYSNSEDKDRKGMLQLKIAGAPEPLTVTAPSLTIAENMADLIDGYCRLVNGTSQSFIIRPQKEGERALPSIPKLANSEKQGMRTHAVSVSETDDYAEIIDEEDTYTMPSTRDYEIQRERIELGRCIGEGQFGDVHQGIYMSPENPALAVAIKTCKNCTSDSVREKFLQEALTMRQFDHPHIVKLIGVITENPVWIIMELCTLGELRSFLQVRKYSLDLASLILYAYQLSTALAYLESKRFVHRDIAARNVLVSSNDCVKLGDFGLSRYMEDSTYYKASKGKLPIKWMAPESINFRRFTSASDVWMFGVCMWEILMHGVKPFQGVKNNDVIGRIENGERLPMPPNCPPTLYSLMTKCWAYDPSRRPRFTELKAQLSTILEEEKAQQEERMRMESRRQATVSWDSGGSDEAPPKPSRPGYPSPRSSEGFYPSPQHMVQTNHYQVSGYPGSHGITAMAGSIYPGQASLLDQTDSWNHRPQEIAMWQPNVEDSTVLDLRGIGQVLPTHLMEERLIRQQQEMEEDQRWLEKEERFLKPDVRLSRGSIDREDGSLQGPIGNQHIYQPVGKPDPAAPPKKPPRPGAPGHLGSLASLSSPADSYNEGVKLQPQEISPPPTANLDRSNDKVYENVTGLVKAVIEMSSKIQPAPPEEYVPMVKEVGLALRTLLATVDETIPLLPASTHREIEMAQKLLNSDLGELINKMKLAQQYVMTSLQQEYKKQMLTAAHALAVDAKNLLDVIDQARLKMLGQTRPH

The compounds below were run against Focal adhesion kinase 1 (Homo sapiens) (UniProt Q05397) (assay: human PTK2 enzyme activity blockers – biochemical, primary screen (AID 727;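 note: 0% = DMSO and 100% = reference compound high control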)). Conditions: biochemical FAK kinase activity assay; active compounds read high;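 tested at 7 µM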.
For O=C(OC1CN2CCC1CC2)C(CO)(c1ccccc1)c1ccccc1 (stereo not drawn), the inhibition was inactive: -0.19%. CN(C)c1cccc(C(=O)NCC2(N(C)C)CCCCC2)c1 was tested, and the inhibition was inactive: 0.57%. For CC(C)N1C(=O)CC2(CCN(CCOC(=O)C(O)(c3ccccc3)c3ccccc3)CC2)C1=O, the inhibition was inactive: 0.25%.
